gsp antag – antagonists of gsp mutant (McCune-Albright syndrome); gsp-mutant cells, cAMP HTRF, 30 min; 0.4% of 340,000 active; Potency, µM (doses to about 76.9 µM), for inactives: at the highest dose activity change, negative = inhibition, actives largely listed as inhibitors; calls by dose curve; cell line not stated here;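 note: intracellular cAMP measured with PDE inhibitor Ro 20-1724 present during compound exposure; % is set by controls: 0 for no effect and ±100 for the full control effect; nearly all actives have a fitted effect of over 65% in size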
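G418-selected cells were plated in DMEM/10% FBS for 16-24 h at 37C, then treated with compounds plus the PDE inhibitor […] (300 uM solution added) for 30 min at 37C. Intracellular cAMP was measured by HTRF after 30 min lysis at room temperature.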
S-ASM inh – inhibitors of human secretory acid sphingomyelinase; P17405; placental ASM, HMU-PC fluorogenic substrate, 60 min; Potency, µM (series often up to 57.5 µM), without a hit: at the top dose activity change, negative = inhibition, hits mostly inhibitors; 0.006% of 340,000 active; active = well fitted inhibition curve with a large enough effect; inconclusive = small, poorly fitted or top-dose-only effect; inactive = no such curve, though single readings can be large or run the other way
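Steps: dispense placental human ASM, pin compound, wait 10 min at room temperature, add HMU-PC0 substrate at 9 uM final, incubate 60 min at 37 °C, add stop solution raising pH to 10, read fluorescence.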
Rango complex inh – prevents formation of the Rango-importin beta complex; Q14974; Rango CFP/YFP FRET sensor + importin beta, 45 min; Potency, µM (highest dose often 92.2 µM), without a hit: at the highest dose inhibition of complex formation; 0.031% of 340,000 active;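 note: 0% = DMSO wells and 100% = buffer wells lacking importin beta; nearly all actives have a fitted effect of over 15% in size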
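FRET biosensor (snurportin 1 IBB flanked by EYFP and cerulean), 50 nM, with compound 5 min, then 0.125 microM importin beta in PBS, 1 mM DTT, 0.02% Tween-20, 0.1% BSA. CFP/YFP ratio read after 45 min at room temperature; pre-read flags interference.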
Rango release inh – inhibition of RanGTP-driven Rango-importin beta dissociation; O95149+P62826; Biochemical FRET Rango-importin beta, RanGTP-induced dissociation; Potency, µM (top dose mostly 46.1 µM), for the others: top-dose activity change, negative = inhibition; 0.071% of 340,000 active; AID 540253; note: % of control where 0% means no effect; nearly all actives have a fitted effect of over 45% in size
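Rango/importin beta premix (0.1/0.25 uM final), PBS + 1 mM DTT + 0.02% Tween-20 + 0.1% BSA; cpd 5 min RT; FRET pre-read; + RanGTP-RCC1 (0.6 uM Ran, 2 mM GTP, 0.2 uM RCC1); 45 min RT; FRET post-read, ex 430, em 486/530 nm.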
gsp ag – gsp mutant agonism; Potency, µM (top dose mostly 76.9 µM), without a hit: top-dose activation (cAMP increase), actives largely listed as activators; AID 624287; 0.13% of 340,000 active; gsp mutant cells, cAMP HTRF, 30 min; active = well fitted activation curve with a large enough effect; inconclusive = small, poorly fitted or top-dose-only effect, or another doubt; inactive = no such curve, though single readings can be large or run the other way; cell line not stated here;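 note: phosphodiesterase inhibitor Ro 20-1724 added with compounds to block cAMP breakdown; nearly all actives have a fitted effect of over 60% in size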
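Cells in DMEM/10% FBS with G418 were pretreated with compounds in DMSO plus […] (300 uM stock) for 30 min at 37C. cAMP was measured by HTRF (cAMP-d2 plus anti-cAMP antibody-K) after 30 min at room temperature.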
Active calls of the source: *; i = inactive; ? = inconclusive; . = no result given; [ ] = remark or other dose. Compounds with a hit are over-represented: about 0.67% of the library has one in this group of screens. Unless noted, calls come from the whole dose curve. Potency is the fitted concentration of half-maximal effect.

1: COc1c(F)c(F)c(C(=O)Nc2ccc3oc(-c4ccncc4)nc3c2)c(F)c1F
2: O=C(Nc1ccc2oc(-c3ccncc3)nc2c1)c1c(F)c(F)c(F)c(F)c1F
3: Cc1occc1C(=O)Nc1cccc([N+](=O)[O-])c1C
4: Cc1nc2ccccn2c1C(=O)N=Nc1c(O)[nH]c2ccccc12
5: CC[n+]1c(/C=C/C=C/N(C(C)=O)c2ccccc2)sc2cc(OC)ccc21
entry no.	1	2	3	4	5
gsp antag	28µM*	8%	3%	5%	3%
S-ASM inh	13%	6%	3%	-1%	-20%
Rango complex inh	0%	0%	-3%	-2%	?
Rango release inh	8%	28%	-2%	-3%	?
gsp ag	-20%	19%	17%	85%[15.4 µM]	33%

6: Cc1ccc(-c2nn(-c3ccccc3)cc2/C=C/C(=O)OCC(=O)NC2CC2)o1
7: CC(C(=O)N1CCN(Cc2ccc3c(c2)OCO3)CC1)c1ccc([N+](=O)[O-])cc1 (stereo not drawn)
8: CCN(CC)c1ncnc2ccc(Br)cc12
9: OCCNc1ncnc2ccc(Br)cc12
10: OCCCn1c(C(CO)Nc2nc(-c3ccc(Cl)cc3)cs2)nc2ccccc21 (stereo not drawn)
entry no.	6	7	8	9	10
gsp antag	50µM*	11µM*	1%	4%	-11%
S-ASM inh	33%	0%	0%	4%	?
Rango complex inh	?	-1%	-1%	-1%	4%
Rango release inh	-2%	2%	0%	11%	22%
gsp ag	26%	-2%[15.4 µM]	18µM*	28%	.

11: CC(C)(C)C(CO)NC(=O)c1ccc[nH]1 (stereo not drawn)
12: CCC1(C)Cc2c(sc3c2c2ncnn2c2nnc(SCC(=O)NCc4ccco4)n32)CO1 (stereo not drawn)
13: CC1(C)Cc2c(sc3c2c2ncnn2c2nnc(SCC(=O)NCc4ccco4)n32)CO1
14: Cc1ccc(NC(=O)CNc2ccc(Cl)c(Cl)c2)cc1S(=O)(=O)N(C)C
15: O=C(Nc1nc(-c2ccccc2)cs1)c1ccc(N2CCOCC2)c([N+](=O)[O-])c1
entry no.	11	12	13	14	15
gsp antag	2%	-1%[15.4 µM]	5%	40µM*	32µM*
S-ASM inh	0%	-9%	0%	-22%	?
Rango complex inh	3%	-2%	0%	0%	3%
Rango release inh	3%	0%	0%	-7%	13%
gsp ag	-9%	2.8µM*	?	-33%	-5%[15.4 µM]

16: CCOc1cccc(C(=O)Nc2nc(-c3ccc(S(=O)(=O)N4CCOCC4)cc3)cs2)c1
17: O=C(Nc1nc(-c2ccccc2)cs1)c1ccc2c(=O)n3c(nc2c1)CCCCC3
18: COc1ccc(OC)c(NC(=O)CSc2ncnc3c2cnn3-c2ccccc2Cl)c1
19: COc1ccc(-n2c(Cc3cccs3)nnc2SCC(=O)Nc2ccc3c(c2)OCCO3)cc1
20: COc1cccc(NC(=O)CSc2nnc(Cc3cccs3)n2-c2ccc(C)cc2)c1
entry no.	16	17	18	19	20
gsp antag	?	40µM*	2µM*	32µM*	?
S-ASM inh	-11%	-22%	-5%	-8%	-14%
Rango complex inh	65µM*	0%	2%	10%	-2%
Rango release inh	-5%	2%	5%	-12%	-1%
gsp ag	25%	-76%	-19%	-28%	-2%

21: COc1ccc(NC(=O)CSc2nnc(Cc3cccs3)n2-c2ccc(C)cc2)cc1
22: COc1ccccc1CNC(=O)CCS(=O)(=O)c1ccc2c(c1)CCN2C(C)=O
23: CCOC(=O)/C(C#N)=C\c1c(OCC)n(CC)c2ccccc12
24: CCOC(=O)C(=CNc1ccc2c(c1)c1ccccc1n2CC)C(=O)OCC
25: CCOc1c(/C=C(\C#N)C(N)=O)c2ccccc2n1CC
entry no.	21	22	23	24	25
gsp antag	32µM*	-3%	25µM*	32µM*	-2%
S-ASM inh	-9%	-3%	-12%	102%	-2%
Rango complex inh	0%	2%	-3%	3%	-3%
Rango release inh	-8%	-8%	-3%	-14%	0%
gsp ag	-46%	7%	-3%[15.4 µM]	1%	16%

26: Cc1ccsc1C(=O)NC1CCCN(Cc2ccc(Cl)cc2)C1 (stereo not drawn)
27: O=S(=O)(c1ccccc1)[C@@]1(c2ccc(Br)cc2)C[C@@H]2ON=C(c3ccccc3)[C@@H]2C1
28: O=S(=O)(c1ccccc1)[C@@]1(c2ccc(Br)cc2)C[C@@H]2ON=C(c3cccc(Br)c3)[C@@H]2C1
29: Cc1nn(-c2ccccc2)c(C)c1[N+](=O)[O-]
30: O=C(NC1CC1)c1nc2c(nnn2Cc2ccccc2Cl)c(=O)[nH]1
entry no.	26	27	28	29	30
gsp antag	1%	11µM*	-7%	6%	-4%
S-ASM inh	5%	-2%	-5%	1%	-3%
Rango complex inh	1%	-3%	0%	-1%	0%
Rango release inh	1%	-1%	1%	4%	6%
gsp ag	-3%[15.4 µM]	.	.	-5%	?

31: O=C(NCCc1ccccc1)c1nc2c(nnn2Cc2ccccc2Cl)c(=O)[nH]1
32: O=C(Cn1cnc2ccccc2c1=O)c1ccc(OC(F)F)cc1
33: CCOc1ccc(S(=O)(=O)N(CC)CC)cc1NC(=O)CSCc1c(C)noc1C
34: S=c1[nH]c2ccccc2n2cccc12
35: Cn1c(=S)[nH]c2ccccc21
entry no.	31	32	33	34	35
gsp antag	40µM*	-4%	1%	16%	10%
S-ASM inh	-14%	-1%	2%	-8%	6%
Rango complex inh	-3%	0%	5%	3%	6%
Rango release inh	-14%	11%	10%	?	14%
gsp ag	14%	?	10µM*	22µM*	28%

36: Cc1cc(N2CCOCC2)nc2ccc(NC(=O)CCC(=O)N3CCN(c4cccc(C(F)(F)F)c4)CC3)cc12
37: COc1ccccc1N(C)S(=O)(=O)c1ccc(C(=O)Nc2ccc(C)cc2C)cc1
38: COCCN(CCOC)c1nc(-c2ccc(C)cc2)nc2ccccc12
39: CCOC(=O)C1CCN(C(=O)C2CCCN(S(=O)(=O)c3ccc(OCC)c(Cl)c3)C2)CC1 (stereo not drawn)
40: Cc1c(/C=N/Nc2nc3ccccc3[nH]2)c2ccccc2n1C
entry no.	36	37	38	39	40
gsp antag	40µM*	-9%	28µM*	?	40µM*
S-ASM inh	i	-2%	8%	-7%	-23%
Rango complex inh	12%	-1%	5%	-1%	0%
Rango release inh	19%	-9%	-18%	-14%	-1%
gsp ag	3%	3%[15.4 µM]	-16%	-8%[15.4 µM]	6%[15.4 µM]

Marked active in gsp ag, of those listed so far:
8: CCN(CC)c1ncnc2ccc(Br)cc12
12: CCC1(C)Cc2c(sc3c2c2ncnn2c2nnc(SCC(=O)NCc4ccco4)n32)CO1 (stereo not drawn)
33: CCOc1ccc(S(=O)(=O)N(CC)CC)cc1NC(=O)CSCc1c(C)noc1C
34: S=c1[nH]c2ccccc2n2cccc12
entry no.	8	12	33	34
gsp antag	1%	-1%[15.4 µM]	1%	16%
S-ASM inh	0%	-9%	2%	-8%
Rango complex inh	-1%	-2%	5%	3%
Rango release inh	0%	0%	10%	?
gsp ag	18µM*	2.8µM*	10µM*	22µM*

Additional compounds follow.
41: Cc1ccc(/C=C2/SC(=S)N(c3ccc(S(=O)(=O)Nc4nccs4)cc3)C2=O)cc1
42: O=C1/C(=C/c2ccccn2)SC(=S)N1c1ccc(O)cc1
43: Cc1ccc(Oc2ccc3c(c2)C(=O)N(c2ccc(S(=O)(=O)Nc4nccs4)cc2)C3=O)cc1
44: COc1ccc(/C=C2/SC(=S)N(c3ccc(S(=O)(=O)Nc4nccs4)cc3)C2=O)cc1
45: O=C1/C(=C\c2ccccn2)SC(=S)N1c1ccc(S(=O)(=O)Nc2nccs2)cc1
46: Cc1cccc(C(=O)N[C@@H]2c3ccccc3C[C@@H]2O)n1
47: CC(C)(C)C(=O)NC(=S)NNC(=O)c1sc2ccccc2c1Cl
entry no.	41	42	43	44	45	46	47
gsp antag	32µM*	-8%	?	32µM*	40µM*	11%	50µM*
S-ASM inh	-16%	-2%	-7%	-15%	-9%	0%	10%
Rango complex inh	-4%	-2%	-1%	0%	-1%	3%	2%
Rango release inh	-18%	-15%	5%	-6%	11%	2%	19%
gsp ag	2%[15.4 µM]	-42%	38%	9%[15.4 µM]	0%[15.4 µM]	-8%	-56%

Screening results as filed in PubChem.
